{"source": "ChEMBL document CHEMBL1123833", "about": "“Novel inhibitors of rat lens aldose reductase: N-[[(substituted amino)phenyl]sulfonyl]glycines” (J Med Chem, 1987)", "target": "Aldo-keto reductase family 1 member B1 (Rattus norvegicus, UniProt P07943)", "assay": "Concentration required to produce 50% inhibition of aldose reductase enzyme (the literature IC50 value for sorbinil is 0.07 uM)", "data": [{"smiles": "O=C1NC(=O)[C@@]2(CCOc3ccc(F)cc32)N1", "note": "[SORBINIL]", "values": [{"measurement": "IC50", "result": 73, "unit": "nM"}]}]}
